For orientation: IC50 means the concentration needed to halve the response being measured.

For the experiment, the target named is T1, BACE-2 (Homo sapiens, UniProt Q9Y5Z0).
T1 construct: Recombinant BACE-2 (extracellular domain, expressed in baculovirus and purified using standard methods); made in house
T1 sequence (Q9Y5Z0 63-473 limits assumed): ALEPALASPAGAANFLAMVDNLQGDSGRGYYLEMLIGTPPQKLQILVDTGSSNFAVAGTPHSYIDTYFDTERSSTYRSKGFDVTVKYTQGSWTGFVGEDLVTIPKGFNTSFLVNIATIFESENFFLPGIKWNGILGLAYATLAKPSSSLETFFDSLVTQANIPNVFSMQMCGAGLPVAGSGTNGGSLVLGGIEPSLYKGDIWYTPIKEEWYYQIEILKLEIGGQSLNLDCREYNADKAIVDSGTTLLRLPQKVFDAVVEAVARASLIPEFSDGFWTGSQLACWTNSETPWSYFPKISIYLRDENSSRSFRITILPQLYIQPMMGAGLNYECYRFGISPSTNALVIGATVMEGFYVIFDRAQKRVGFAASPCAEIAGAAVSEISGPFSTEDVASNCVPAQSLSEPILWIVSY
Put plainly: assay for inhibition of BACE-2. The class given is biochemical.

Structures can show the parent of a compound that is named as a salt. Where two headings read alike, the source gives them in different places.

`C[C@@]1(c2cc(NC(=O)c3ncc(OC(F)F)cc3Cl)ccc2F)CO[C@@](C)(C(F)(F)F)C(N)=N1` [Example 233, 3-Chloro-5-difluoromethoxy-pyridine-2-carboxylic acid [3-((3R,6R)-5-amino-3,6-dimethyl-6-trifluoromethyl-3,6-dihydro-2H-[1,4]oxazin-3-yl)-4-fluoro-phenyl]-amide hydrochloride] displayed an IC50 of 21 nM.

In turn, `C[C@@]1(c2cc(NC(=O)c3ncc(C#N)cc3N)ccc2F)CO[C@@](C)(C(F)(F)F)C(N)=N1` [Example 240, 3-Amino-5-cyano-pyridine-2-carboxylic acid [3-((3R,6R)-5-amino-3,6-dimethyl-6-trifluoromethyl-3,6-dihydro-2H-[1,4]oxazin-3-yl)-4-fluoro-phenyl]-amide] displayed an IC50 of 5 nM.

In the case of `C[C@@]1(c2cccc(NC(=O)c3ccc(C#N)cn3)n2)CO[C@@](C)(C(F)(F)F)C(N)=N1` [Example 266, 5-Cyano-pyridine-2-carboxylic acid [6-((3R,6R)-5-amino-3,6-dimethyl-6-trifluoromethyl-3,6-dihydro-2H-[1,4]oxazin-3-yl)-pyridin-2-yl]-amide], the IC50 (read-out: BACE-2 IC50) was determined as 101 nM.
